Experimental data from ChEMBL document CHEMBL4219244, “Blocking Alcoholic Steatosis in Mice with a Peripherally Restricted Purine Antagonist of the Type 1 Cannabinoid Receptor” (J Med Chem, 2018).

Protein sequences, listed by entry. Tags and fused reporters are not part of them. Lines headed by an entry give the natural chain unless they say otherwise; changes in a name come on top.
UniProt P34972, whole entry: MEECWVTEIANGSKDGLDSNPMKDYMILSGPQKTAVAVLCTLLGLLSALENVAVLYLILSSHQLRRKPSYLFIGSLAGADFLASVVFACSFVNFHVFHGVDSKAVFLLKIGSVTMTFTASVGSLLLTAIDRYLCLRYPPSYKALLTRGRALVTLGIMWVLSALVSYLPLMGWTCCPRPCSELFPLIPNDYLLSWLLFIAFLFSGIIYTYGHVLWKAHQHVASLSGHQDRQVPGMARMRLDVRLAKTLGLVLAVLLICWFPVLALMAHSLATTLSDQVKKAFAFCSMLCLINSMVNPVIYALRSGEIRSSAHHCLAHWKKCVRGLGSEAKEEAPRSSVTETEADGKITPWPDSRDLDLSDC
UniProt P21554, whole entry: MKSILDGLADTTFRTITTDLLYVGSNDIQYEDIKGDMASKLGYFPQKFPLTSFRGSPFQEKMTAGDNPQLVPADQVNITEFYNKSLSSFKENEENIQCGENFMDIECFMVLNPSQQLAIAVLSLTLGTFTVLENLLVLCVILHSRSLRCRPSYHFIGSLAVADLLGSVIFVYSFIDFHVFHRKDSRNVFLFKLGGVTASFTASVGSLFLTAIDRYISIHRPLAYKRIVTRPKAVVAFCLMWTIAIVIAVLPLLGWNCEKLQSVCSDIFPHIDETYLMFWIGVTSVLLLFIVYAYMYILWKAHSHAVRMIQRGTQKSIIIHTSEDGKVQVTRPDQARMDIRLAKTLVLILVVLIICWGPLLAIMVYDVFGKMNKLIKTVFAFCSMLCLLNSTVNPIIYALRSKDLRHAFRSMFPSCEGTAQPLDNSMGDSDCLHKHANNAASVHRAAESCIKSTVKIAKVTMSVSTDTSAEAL
UniProt Q12809: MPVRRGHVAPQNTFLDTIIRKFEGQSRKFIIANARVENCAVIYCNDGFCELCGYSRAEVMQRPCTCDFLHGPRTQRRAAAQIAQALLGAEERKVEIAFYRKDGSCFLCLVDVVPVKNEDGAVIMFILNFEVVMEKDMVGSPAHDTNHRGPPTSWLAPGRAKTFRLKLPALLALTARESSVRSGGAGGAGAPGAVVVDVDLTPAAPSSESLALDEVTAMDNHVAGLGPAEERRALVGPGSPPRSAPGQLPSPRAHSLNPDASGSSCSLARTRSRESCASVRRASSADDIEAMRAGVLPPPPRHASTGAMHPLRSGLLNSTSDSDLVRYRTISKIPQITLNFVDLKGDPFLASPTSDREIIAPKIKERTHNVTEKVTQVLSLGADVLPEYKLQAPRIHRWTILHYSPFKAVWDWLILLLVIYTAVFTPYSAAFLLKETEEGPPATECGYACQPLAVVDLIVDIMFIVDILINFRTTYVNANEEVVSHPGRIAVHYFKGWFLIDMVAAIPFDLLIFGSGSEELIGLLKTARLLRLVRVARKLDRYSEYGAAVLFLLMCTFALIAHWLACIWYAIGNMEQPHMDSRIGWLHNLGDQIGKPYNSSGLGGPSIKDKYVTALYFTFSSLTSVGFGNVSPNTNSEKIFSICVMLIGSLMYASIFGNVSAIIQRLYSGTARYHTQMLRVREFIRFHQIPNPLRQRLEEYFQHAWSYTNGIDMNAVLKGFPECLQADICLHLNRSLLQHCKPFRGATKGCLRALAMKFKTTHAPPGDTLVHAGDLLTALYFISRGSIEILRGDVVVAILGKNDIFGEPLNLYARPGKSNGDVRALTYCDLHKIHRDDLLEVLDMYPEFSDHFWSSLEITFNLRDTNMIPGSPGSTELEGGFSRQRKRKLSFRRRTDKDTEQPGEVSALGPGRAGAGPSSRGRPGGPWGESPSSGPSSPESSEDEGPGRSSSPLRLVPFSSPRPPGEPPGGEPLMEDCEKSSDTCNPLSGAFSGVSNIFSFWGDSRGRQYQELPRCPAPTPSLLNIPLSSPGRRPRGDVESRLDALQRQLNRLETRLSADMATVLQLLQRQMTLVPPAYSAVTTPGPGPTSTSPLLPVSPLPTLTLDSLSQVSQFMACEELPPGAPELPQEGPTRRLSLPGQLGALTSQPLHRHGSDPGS

What was measured:
[1] = molecular target: T1, Cannabinoid receptor 2 (Homo sapiens, UniProt P34972); test: biochemical
[2] = molecular target: T2, Cannabinoid receptor 1 (Homo sapiens, UniProt P21554); test: Antagonist activity at human CB1 expressed in CHOK1 cells co-expressing Galpha-q16 assessed as reduction in CP55940-induced inositol phosphatase 3-mediated intercellular calcium mobilization by Calcein-4 AM dye-based FLIPR assay; assay type: functional, cell-based
[3] = molecular target: T2, Cannabinoid receptor 1; test: biochemical
[4] = molecular target: T1, Cannabinoid receptor 2
[5] = species on record: Homo sapiens; test: Selectivity ratio of Ki for human CB2 to Ki for human CB1
[6] = Permeability from apical to basolateral side in MDCK2-MDR1 cells assessed as drug transport at 10 uM after 1 hr by mass spectrometry; assay type: ADME, cell-based, Canis lupus familiaris; conditions: dog, mdck-mdr1, 1 h
[7] = molecular target: T2, Cannabinoid receptor 1
[8] = molecular target: Voltage-gated inwardly rectifying potassium channel KCNH2 (Homo sapiens, UniProt Q12809)
[9] = in vivo; conditions: C57BL/6, mouse, brain, po, 10 mg/kg
[10] = in vivo; conditions: C57BL/6, mouse, plasma, po, 10 mg/kg
[11] = in vivo; conditions: C57BL/6, mouse, plasma, po, 10 mg/kg; remark: listed apart in the source
[12] = in vivo; conditions: C57BL/6, mouse, liver, po, 10 mg/kg
[13] = in vivo; conditions: C57BL/6, mouse, liver, po, 10 mg/kg; remark: listed apart in the source
[14] = in vivo; conditions: C57BL/6, mouse, brain, po, 10 mg/kg; remark: listed apart in the source
[15] = in vivo; conditions: C57BL/6, mouse, brain, po, 10 mg/kg; remark: listed apart in the source
[16] = in vivo; conditions: C57BL/6, mouse, plasma, po, 10 mg/kg; remark: listed apart in the source
[17] = in vivo; conditions: C57BL/6, mouse, liver, po, 10 mg/kg; remark: listed apart in the source

SMILES | Ki [1] [nM] | Ke [2] [nM] | other results
Clc1ccc(-n2c(-c3ccccc3Cl)nc3c(N4CCN(Cc5cccc(Cl)c5)CC4)ncnc32)cc1 | > 10000 | – | –
Clc1ccc(-n2c(-c3ccccc3Cl)nc3c(N4CCN(c5ccccn5)CC4)ncnc32)cc1 | 1400 | 13 | Ki [3]: 2 nM
Fc1ccccc1CN1CCN(c2ncnc3c2nc(-c2ccccc2Cl)n3-c2ccc(Cl)cc2)CC1 | 2300 | 0.9 | Ki [3]: 7 nM
Clc1ccc(-n2c(-c3ccccc3Cl)nc3c(N4CCN(C5CCCCC5)CC4)ncnc32)cc1 | 110 | 17 | Ki [3]: 2 nM
CC(c1ccccc1)N1CCN(c2ncnc3c2nc(-c2ccccc2Cl)n3-c2ccc(Cl)cc2)CC1 (stereo unspecified) | 1300 | – | –
CCNC1(C(N)=O)CCN(c2ncnc3c2nc(-c2ccccc2Cl)n3-c2ccc(Cl)cc2)CC1 [OTENABANT] | – | – | Ki [4]: 7700 nM
COc1ccccc1N1CCN(c2ncnc3c2nc(-c2ccccc2Cl)n3-c2ccc(Cl)cc2)CC1 | – | – | Ratio Ki [5]: 2500; Drug transport [6]: 0%
CN1CCN(c2ncnc3c2nc(-c2ccccc2Cl)n3-c2ccc(Cl)cc2)CC1 | – | – | Ki [7]: 3 nM
FC(F)(F)c1ccccc1CN1CCN(c2ncnc3c2nc(-c2ccccc2Cl)n3-c2ccc(Cl)cc2)CC1 | > 10000 | 5 | –
Cc1c(CN2CCN(c3ncnc4c3nc(-c3ccccc3Cl)n4-c3ccc(Cl)cc3)CC2)cnn1C | – | 42 | –
Clc1ccc(-n2c(-c3ccccc3Cl)nc3c(N4CCN(Cc5ccncc5)CC4)ncnc32)cc1 | – | 6 | Ki [3]: 22 nM
N#Cc1ccccc1CN1CCN(c2ncnc3c2nc(-c2ccccc2Cl)n3-c2ccc(Cl)cc2)CC1 | > 10000 | 21 | –
CC(c1ccncc1)N1CCN(c2ncnc3c2nc(-c2ccccc2Cl)n3-c2ccc(Cl)cc2)CC1 (stereo unspecified) | 1100 | 0.5 | Ratio Ki [5]: 92; Ki [8]: > 10000 nM
Fc1ccc(N2CCN(c3ncnc4c3nc(-c3ccccc3Cl)n4-c3ccc(Cl)cc3)CC2)cc1 | 5100 | – | –
Cc1nc(CN2CCN(c3ncnc4c3nc(-c3ccccc3Cl)n4-c3ccc(Cl)cc3)CC2)no1 | – | 12 | –
Clc1ccc(-n2c(-c3ccccc3Cl)nc3c(N4CCN(CCc5ccccc5)CC4)ncnc32)cc1 | 2100 | – | –
FC(F)(F)Oc1ccccc1CN1CCN(c2ncnc3c2nc(-c2ccccc2Cl)n3-c2ccc(Cl)cc2)CC1 | – | 4 | –
Fc1ccc(CN2CCN(c3ncnc4c3nc(-c3ccccc3Cl)n4-c3ccc(Cl)cc3)CC2)cc1 | > 10000 | – | Ki [8]: > 10000 nM; Ki [3]: 4 nM
Clc1ccc(-n2c(-c3ccccc3Cl)nc3c(N4CCN(Cc5ccccc5Cl)CC4)ncnc32)cc1 | > 10000 | – | Tmax [9]: 0.5 h; Cmax [10]: 507 ng/mL; Tmax [11]: 0.5 h; half-life [12]: 5.3 h; Tmax [13]: 0.5 h; Ki [8]: > 10000 nM; half-life [14]: 11.9 h; Cmax [15]: 17 ng/g; half-life [16]: 5.4 h; Cmax [17]: 2080 ng/g
Clc1ccc(-n2c(-c3ccccc3Cl)nc3c(N4CCN(Cc5ccncc5Cl)CC4)ncnc32)cc1 | > 10000 | 3 | –
